Data taken from BindingDB's records for patent US11980598 (Beijing Greatway Pharmaceutical Technology Co., 2024).

Protein sequences, listed by entry. Tags and fused reporters are not part of them. Lines headed by an entry give the natural chain unless they say otherwise; changes in a name come on top.
UniProt P28335: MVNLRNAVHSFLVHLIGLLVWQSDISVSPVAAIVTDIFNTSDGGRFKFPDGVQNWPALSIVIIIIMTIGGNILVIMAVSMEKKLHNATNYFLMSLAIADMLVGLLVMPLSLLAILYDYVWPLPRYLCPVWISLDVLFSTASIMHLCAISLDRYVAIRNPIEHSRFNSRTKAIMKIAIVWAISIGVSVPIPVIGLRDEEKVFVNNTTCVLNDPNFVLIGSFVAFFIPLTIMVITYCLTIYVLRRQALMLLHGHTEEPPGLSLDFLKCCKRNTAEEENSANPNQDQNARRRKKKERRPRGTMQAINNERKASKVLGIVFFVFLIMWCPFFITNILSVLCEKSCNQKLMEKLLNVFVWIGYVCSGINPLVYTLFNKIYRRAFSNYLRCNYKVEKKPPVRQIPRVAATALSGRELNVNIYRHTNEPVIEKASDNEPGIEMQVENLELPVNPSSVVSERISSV

Molecular target: 5-hydroxytryptamine receptor 2C (Homo sapiens, UniProt P28335)
Experiment: 5-HT2C Receptor Binding Test
Procedure: The test tubes were placed under a reaction condition of 25° C. 50 μg of the receptor membrane protein 5-HT2C was added to all the tubes. In non-specific binding tubes, 50 μL of a corresponding unlabeled ligand 5-HT at a concentration of 10−4 M was added to a final concentration of 10 μM, and pre-reacted for 30 minutes. In test tubes, 30 μL of test example compounds (a concentration of 104-10−10 M) were added, respectively. All the tubes were added with 40 μL of [3H]-LSD (lysergic acid diethylamide), respectively. The volume in all reaction tubes was made up to 300 μL with Tris-HCl buffer (50 mM Tris-HCl, 1 mM EDTA, 5 mM MgCl2, 0.1% NaN3, 0.1 mM PMSF, pH 7.4); the reaction was carried out at 25° C. for 1 hour; the mixture was then spotted on a type 49 glass fiber filter paper, suction filtered under a vacuum, washed 3 times with 2 mL of ice-cold Tris-HCl buffer (50 mM Tris-HCl Buffer, 1 mM EDTA, 5 mM MgCl2, 0.1% NaN3, pH7.4), and dried with suction. The filter paper was taken out and dried by baking, and then placed in a scintillation bottle. 1 mL of the scintillation liquid was added, and the radioactive intensity was measured by a liquid scintillation counter

In the case of COc1ccc2cccc(CCNC(C)=O)c2c1 [US11980598, Compound Ago], the IC50 is reported as 4.52 nM.
